# AlphaSeq binding of Ab-14 light chain variants to a spike HR2 peptide

Values reported by Li et al. 2023, doi:10.1038/s41467-023-39022-2 (FLAb copy).

Target: peptide PDVDLGDISGINAS, taken from heptad repeat 2 (HR2) of SARS-CoV-2 spike.

Each scFv is VH, a 15-residue (Gly4Ser)3 linker, VL, as in the parent Ab-14, and differs from it in the CDRs of the light chain only.
VH: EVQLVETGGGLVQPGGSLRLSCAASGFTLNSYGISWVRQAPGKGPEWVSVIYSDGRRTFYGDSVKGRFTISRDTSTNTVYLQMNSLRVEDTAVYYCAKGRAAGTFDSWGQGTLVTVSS
VL: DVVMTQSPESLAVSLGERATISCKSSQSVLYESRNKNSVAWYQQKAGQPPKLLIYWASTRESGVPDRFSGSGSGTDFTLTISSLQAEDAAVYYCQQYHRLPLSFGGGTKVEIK

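This is the validation round: designs drawn from the data on random variants, tested in the same kind of assay. Their group label is 14L_En_HC (En: ensemble of fine-tuned language models; HC: hill climbing; a sequence that several methods proposed may carry one label only). Affinity was read by AlphaSeq, a pooled yeast mating assay with surface-displayed partners. After mating in shaken culture at 30 °C for 16 h, diploids were selected and their barcode pairs sequenced. Scores were corrected for input abundance and mapped to Kd with protein pairs of known affinity run in the same pool. There are six technical replicates.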

The parent's light chain CDRs are KSSQSVLYESRNKNSVA, WASTRES, QQYHRLPLS; each variant's own CDRs replace them letter for letter.
The read-out is the apparent dissociation constant on a log10 scale (nM): the lower, the stronger.
The mean shown is taken over the replicates in which the pair was detected.
"nd" means that the variant was in the library but no mating with the target was seen in that replicate; the authors take this as a sign of poor binding, and no number exists.

CDR-L1	CDR-L2	CDR-L3	log10 Kd (nM) by replicate	mean log10 Kd (nM)	control signals
SLMQVGGYESNEHNSIA	DLRTRES	QQYHRLPLS	1.47 1.08 0.82 0.71 0.71 0.73	0.92	0 of 18
TLGQSTMMESRNKNNVA	QMSTREK	QQYHRLPLS	0.43 0.10 0.01 -0.09 0.46 0.46	0.23	0 of 18
TITQMMLMTSHNMNSVA	HASTRED	QQYHRLPLI	1.44 1.17 0.91 1.34 1.29 1.47	1.27	2 of 18 (3.38)
TISQSWLIEQRNKNNVA	EMSTREN	QDYDRLPLS	0.06 0.06 -0.16 -0.30 -0.24 -0.03	-0.10	0 of 18
TLSHSMDMTSRNVNSVA	DLTTRGN	QQYHRLPLS	0.44 0.03 -0.07 0.16 0.05 0.21	0.14	1 of 18 (2.13)
KLLQNVMTEGKNRNNVA	HMTMRED	QQYWRLPLS	nd nd nd nd nd nd	nd	0 of 18
KLSQFYRMEYRNKNSVA	DNSTRES	QDYDRLPLS	nd nd nd 2.61 nd nd	2.61	1 of 18 (1.91)
MISQLFMYGSRNPNSVA	QASTRES	QQYDRLPLI	0.24 0.05 -0.07 0.23 0.03 0.47	0.16	0 of 18
VISQSFLIGMKAKNSVA	QTNTREE	QQYDRLPLI	0.73 0.44 0.57 0.27 0.52 0.36	0.48	3 of 18 (3.02)
MISDLTMNGSRNKNSVA	DLSTRGS	QQYHRLPLS	0.29 0.06 0.09 0.04 0.02 0.13	0.11	1 of 18 (3.60)
IISQVDDYLSRQTNSIA	DQTTRGS	QQYDRLPLS	1.14 1.00 1.21 1.16 1.81 1.51	1.31	0 of 18
TISQSALMTGLNRNSVA	QAEERLE	QQYHRLPLS	0.32 0.17 1.85 0.00 1.08 1.19	0.77	0 of 18
MLGMTVMQGMYSRNSVA	QEETRAE	QQYHHLPLS	2.02 2.21 1.53 1.34 1.75 1.93	1.80	0 of 18
KLRQLTHVESFNKNNVA	EMTTRES	QSYDRLPLS	0.88 0.69 1.27 1.27 1.07 1.94	1.19	4 of 18 (2.85)
KISGYLNKESKDKNSVA	EMVNRES	QQYDRLPLS	0.34 0.43 0.16 0.14 0.15 0.56	0.29	2 of 18 (2.91)
MLSDLMKYGSRNKNPIA	NASTREY	QQYHRLPLE	2.56 2.49 3.18 2.11 1.72 1.76	2.30	1 of 18 (2.57)
TLGQSTLMESRNVNNVA	QMSTREK	QQYHRLPLS	-0.07 -0.19 -0.16 -0.32 -0.19 -0.19	-0.18	1 of 18 (2.35)
KLGQSVAMTSRMQNNVA	DLNERER	QQYHRLPLS	0.14 0.21 -0.05 0.08 0.05 0.10	0.09	0 of 18
KIGGVTNGISRNKNSVA	EQSTRED	QQYNRLPLI	0.58 0.48 0.51 0.28 0.48 0.83	0.53	2 of 18 (2.73)
KIAQSMNMTSHHINSVA	QSETREE	QQYNHLPLS	1.40 1.39 1.21 1.71 1.08 1.35	1.36	2 of 18 (2.01)
KLRQVTGYEMYNKNSVA	QTSTRAS	QDYHRLPLS	0.42 0.93 nd 0.38 0.05 0.73	0.50	0 of 18
TIGQSVHETSRIKNSVA	HASTRED	QQYDRLPLS	0.22 0.53 0.48 0.08 0.37 0.37	0.34	0 of 18
TISMSVNMTSHGKNSVA	QAEMRES	QQYDRLPLS	0.47 0.88 0.55 0.50 1.36 0.64	0.73	0 of 18
KLGSSTRFESSNKASIA	DNSTREE	QQYHRLPLS	1.01 0.85 0.72 0.81 0.76 1.11	0.87	0 of 18
HLGGTMTWESHAKNSVA	QSNTRAE	QQYHRLPLS	0.30 0.18 0.08 -0.21 0.04 0.08	0.08	3 of 18 (3.00)
IFSQSVLMGNLMKNSVA	QASTRFS	QQYHRLPLI	1.09 0.87 0.84 1.22 2.25 1.65	1.32	1 of 18 (3.16)
MMSMGYLGGMRAKNNVA	QESTREN	QQYHRLPLI	nd nd nd 0.94 0.07 nd	0.51	0 of 18
KLSQSVNMTGKNKNSVA	ELTFREK	QQYERLPLS	1.10 0.91 0.50 1.95 2.66 1.38	1.42	1 of 18 (2.13)
KLQSVTGYESYVRNSVA	QMSTRAE	QDYNRLPLS	0.74 0.31 0.83 0.57 0.37 0.50	0.55	1 of 18 (1.97)
NISESMYFQSRMKNNIA	EMSTREK	QHYHRLPLS	nd 0.75 nd 0.22 nd 0.96	0.64	0 of 18
HISQMWMLETKNKNNVA	EESTRED	QSYFRLPLS	0.30 0.27 0.06 0.02 0.34 0.42	0.23	0 of 18
KLSQVTNSEHKNKNSIA	EMVTREK	QQYDRLPLS	0.71 0.77 0.69 0.31 0.53 0.53	0.59	0 of 18
MITAMLRGMGRDKNSVA	NAQTRES	QHYNRLPLS	2.72 2.60 nd 2.84 5.04 3.85	3.41	1 of 18 (3.63)
KLLQVTENMSLNRNSVA	HMSTRED	QQYHHLPLS	0.41 0.37 0.69 0.52 0.62 0.88	0.58	3 of 18 (2.27)
KLGSATRFESSNKASIA	DNSTREQ	QQYHRLPLS	0.88 0.39 0.24 0.52 -0.11 0.40	0.39	0 of 18
TIAQSMLYVSNLKNSIA	QAETRES	QQYHRLPIS	1.17 1.37 1.28 0.94 0.72 1.16	1.11	1 of 18 (2.27)
NVGQMMDGMTRNRNNVA	HQSTRED	QHYHRLPLS	1.07 0.15 0.61 0.12 0.47 0.86	0.55	0 of 18

Top 5 of the variants detected in all replicates, tightest first:

CDR-L1	CDR-L2	CDR-L3	log10 Kd (nM) by replicate	mean log10 Kd (nM)	control signals
TLGQSTLMESRNVNNVA	QMSTREK	QQYHRLPLS	-0.07 -0.19 -0.16 -0.32 -0.19 -0.19	-0.18	1 of 18 (2.35)
TISQSWLIEQRNKNNVA	EMSTREN	QDYDRLPLS	0.06 0.06 -0.16 -0.30 -0.24 -0.03	-0.10	0 of 18
HLGGTMTWESHAKNSVA	QSNTRAE	QQYHRLPLS	0.30 0.18 0.08 -0.21 0.04 0.08	0.08	3 of 18 (3.00)
KLGQSVAMTSRMQNNVA	DLNERER	QQYHRLPLS	0.14 0.21 -0.05 0.08 0.05 0.10	0.09	0 of 18
MISDLTMNGSRNKNSVA	DLSTRGS	QQYHRLPLS	0.29 0.06 0.09 0.04 0.02 0.13	0.11	1 of 18 (3.60)

Of ten entries with the parent sequence, four were seen in most replicates (averages 0.34 to 2.37), three in one and three in none, so single entries are noisy.
As a blank, each scFv also met three strains without target: over all light chain designs, 4% of these pairings were detected, typically at 2.64 and seldom below 1.59. For each scFv, signals with the empty controls are counted beside the result, with their mean in brackets.
A sequence measured in both rounds can read differently, since the two assays cover different ranges.
The authors' rule: three or more of the six replicates give a measured affinity, fewer mean a poor binder.